Assay results as given in patent US12162888B2, “Carboxamides as ubiquitin-specific protease inhibitors” (Valo Early Discovery, Inc., priority 2018, dated 2024).

Amino acid sequences for entries named in this document (tags omitted).
UniProt Q96RU2, whole entry: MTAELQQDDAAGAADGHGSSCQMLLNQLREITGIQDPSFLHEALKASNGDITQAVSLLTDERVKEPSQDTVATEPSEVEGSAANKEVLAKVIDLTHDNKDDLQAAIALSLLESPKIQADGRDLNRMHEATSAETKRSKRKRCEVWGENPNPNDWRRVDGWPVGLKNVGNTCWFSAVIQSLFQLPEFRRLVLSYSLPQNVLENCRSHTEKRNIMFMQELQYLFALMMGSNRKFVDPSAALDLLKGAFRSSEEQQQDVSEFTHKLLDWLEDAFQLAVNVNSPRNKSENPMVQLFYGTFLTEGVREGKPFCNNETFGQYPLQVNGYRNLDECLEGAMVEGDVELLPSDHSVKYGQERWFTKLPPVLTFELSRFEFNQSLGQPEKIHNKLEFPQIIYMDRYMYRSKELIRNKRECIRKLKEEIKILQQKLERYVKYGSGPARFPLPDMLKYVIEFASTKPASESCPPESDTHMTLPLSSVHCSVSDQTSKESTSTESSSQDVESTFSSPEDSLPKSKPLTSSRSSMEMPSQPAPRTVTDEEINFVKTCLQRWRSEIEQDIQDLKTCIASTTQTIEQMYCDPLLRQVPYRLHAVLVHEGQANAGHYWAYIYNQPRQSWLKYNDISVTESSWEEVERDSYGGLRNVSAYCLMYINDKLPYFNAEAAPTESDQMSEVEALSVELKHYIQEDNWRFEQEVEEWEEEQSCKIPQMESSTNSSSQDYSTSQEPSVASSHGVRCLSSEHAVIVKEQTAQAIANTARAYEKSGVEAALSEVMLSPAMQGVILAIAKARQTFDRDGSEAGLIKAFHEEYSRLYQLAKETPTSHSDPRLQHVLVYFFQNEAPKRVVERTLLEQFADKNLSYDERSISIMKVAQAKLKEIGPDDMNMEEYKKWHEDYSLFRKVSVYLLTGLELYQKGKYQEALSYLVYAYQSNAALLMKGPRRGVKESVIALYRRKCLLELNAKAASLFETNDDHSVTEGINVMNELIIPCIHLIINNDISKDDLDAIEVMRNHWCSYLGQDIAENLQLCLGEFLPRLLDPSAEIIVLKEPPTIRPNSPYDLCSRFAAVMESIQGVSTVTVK
UniProt Q9UHP3, whole entry: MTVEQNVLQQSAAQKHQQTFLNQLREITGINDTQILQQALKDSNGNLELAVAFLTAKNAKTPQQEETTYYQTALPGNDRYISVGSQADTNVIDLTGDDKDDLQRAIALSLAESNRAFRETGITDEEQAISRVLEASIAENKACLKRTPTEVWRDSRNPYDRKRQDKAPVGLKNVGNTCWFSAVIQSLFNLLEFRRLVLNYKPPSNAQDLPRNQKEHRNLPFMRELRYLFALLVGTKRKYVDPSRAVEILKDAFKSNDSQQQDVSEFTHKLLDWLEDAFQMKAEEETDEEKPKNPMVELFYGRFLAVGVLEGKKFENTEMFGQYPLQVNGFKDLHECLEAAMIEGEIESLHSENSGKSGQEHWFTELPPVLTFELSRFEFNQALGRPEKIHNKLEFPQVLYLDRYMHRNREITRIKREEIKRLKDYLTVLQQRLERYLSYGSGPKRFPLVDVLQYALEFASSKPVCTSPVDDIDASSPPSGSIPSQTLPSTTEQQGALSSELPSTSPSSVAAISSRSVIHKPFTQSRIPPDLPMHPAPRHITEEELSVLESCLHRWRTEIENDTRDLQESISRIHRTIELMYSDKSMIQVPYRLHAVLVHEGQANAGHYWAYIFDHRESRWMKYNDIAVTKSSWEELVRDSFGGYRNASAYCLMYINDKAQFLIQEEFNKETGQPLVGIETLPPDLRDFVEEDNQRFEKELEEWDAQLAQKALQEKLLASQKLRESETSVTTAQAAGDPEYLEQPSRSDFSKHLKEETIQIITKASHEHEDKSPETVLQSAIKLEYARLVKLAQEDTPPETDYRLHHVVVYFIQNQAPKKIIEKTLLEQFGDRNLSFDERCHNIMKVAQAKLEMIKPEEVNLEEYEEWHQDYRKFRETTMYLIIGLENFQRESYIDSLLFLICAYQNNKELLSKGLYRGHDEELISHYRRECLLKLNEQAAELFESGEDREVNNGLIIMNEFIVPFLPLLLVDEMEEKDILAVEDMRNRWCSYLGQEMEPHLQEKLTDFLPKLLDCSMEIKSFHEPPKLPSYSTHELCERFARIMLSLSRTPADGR

Assays:
[1] = molecular target: USP28 (His-tagged USP28-FL-mammalian) (Homo sapiens, UniProt Q96RU2); assay: Ubiquitin-Rhodamine 110 Assay for USP28 Activity, Example A-1(a); conditions: read-out: USP28 A-1(a), biochemical IC50 range
Method: Example A-1(a): Biochemical Assay: Ubiquitin-Rhodamine 110 Assay for USP28 Activity
The assay was performed in a final volume of 9 μL in assay buffer containing 20 mM Tris-HCl (pH 8.0, (1M Tris-HCl, pH 8.0 solution; Corning 46-031-CM)), 3 mM BME (2-Mercaptoethanol; Sigma 63689-25ML-F), 0.03% BGG (0.22 μM filtered, Sigma, G7516-25G), and 0.01% Triton X-100 (Sigma, T9284-10L). Nanoliter quantities of 10-point, 3-fold serial dilution in DMSO was pre-dispensed into 1536 assay plates (Corning, #3724BC) for a final test concentration of 25 μM to 1.3 nM, top to lowest dose, respectively. Enzyme USP28, construct His-tagged USP28-FL-mammalian, (protein expression and purification procedure described below). Concentration and incubation times were optimized for the maximal signal-to-background while maintaining initial velocity conditions at a fixed substrate concentration. The final concentration of the enzyme in the assay was […]. Final substrate (Ub-Rh110; Ubiquitin-Rhodamine 110, UbiQ-126) concentration was 25 nM with [Ub-Rh110]<<Km. 3 μL of 2× enzyme was added to assay plates (pre-stamped with compound) preincubated with […] for 30 minutes and then 3 μL of 2× Ub-Rh110 was added to assay plates. Plates were incubated for 45 minutes at room temperature before addition of 3 μL of stop solution (final concentration of 10 mM citric acid (Sigma, 251275-500G)). Fluorescence was read on the Envision (Excitation at 485 nm and Emission at 535 nm; Perkin Elmer) or on the PheraSTAR (Excitation at 485 nm and Emission at 535 nm; BMG Labtech). […]
(§1) For assay formats Example A-1(a), A-1(b), and A-2, data were reported as percent inhibition compared with control wells based on the following equation: % inh=1−((FLU−AveLow)/(AveHigh−AveLow)) where FLU=measured Fluorescence, AveLow=average Fluorescence of no enzyme control (n=16), and AveHighh=average Fluorescence of DMSO control (n=16). IC50 values were determined by curve fitting of the standard 4 parameter logistic fitting algorithm included in the Activity Base software package: IDBS XE Designer Model 205. […]

[2] = molecular target: USP25 (USP25-His6, Boston Biochem E-546) (Homo sapiens, UniProt Q9UHP3); assay: Ubiquitin-Rhodamine 110 Assay for USP25 Activity, Example A-3; conditions: read-out: USP25 A-3, biochemical IC50 range
Method: Example A-3: Biochemical Assay: Ubiquitin-Rhodamine 110 Assay for USP25 Activity
The assay was performed in a final volume of 9 μL in assay buffer containing 20 mM Tris-HCl (pH 8.0, (1M Tris-HCl, pH 8.0 solution; Corning 46-031-CM)), 3 mM BME (2-Mercaptoethanol; Sigma 63689-25ML-F), 0.03% BGG (0.22 μM filtered, Sigma, G7516-25G), and 0.01% Triton X-100 (Sigma, T9284-10L). Nanoliter quantities of 10-point, 3-fold serial dilution in DMSO was pre-dispensed into 1536 assay plates (Corning, #3724BC) for a final test concentration of 25 μM to 1.3 nM, top to lowest dose, respectively. Enzyme USP25, construct USP25-His6, (Boston Biochem E-546). […] Fluorescence was read on the Envision (Excitation at 485 nm and Emission at 535 nm; Perkin Elmer) or on the PheraSTAR (Excitation at 485 nm and Emission at 535 nm; BMG Labtech).
as §1

In the case of `Cc1ccc2c(N)c(C(=O)N[C@H]3COc4cc(N5CC[C@H]6CNC[C@H]65)cc(F)c4C3)sc2n1`, the IC50 [1] is reported as 1 to 50 nM and the IC50 [2] is reported as 50 to 200 nM.
In the case of `COC[C@H]1CN(c2ccc3c(c2)OC[C@H](NC(=O)c2sc4nc(C)ccc4c2N)C3)CCN1`, the IC50 [1] is reported as 1 to 50 nM and the IC50 [2] is reported as 200 to 2000 nM.
Work on `Cc1ccc2c(N)c(C(=O)NC3COc4cc(N5CC(N)C6(C5)OCCC6C)ccc4C3)sc2n1` (centres unmarked) yielded an IC50 [1] of 1 to 50 nM.
